Source: ChEMBL document CHEMBL2375349, “Discovery of subtype selective muscarinic receptor antagonists as alternatives to atropine using in silico pharmacophore modeling and virtual screening methods” (2013)

Test: Displacement of [3H] N-methylscopolamine from muscarinic acetylcholine receptor in guinea pig brain homogenate after 30 mins by scintillation counting analysis

In the case of `O=[N+]([O-])c1cc([N+](=O)[O-])c(Nc2ccc(Br)cc2Br)c([N+](=O)[O-])c1`, the Ki is reported as 5.7 µM.
